Assay results from patent publication US6026817A, “Method of treating the syndrome of coronary heart disease risk factors in humans” (priority 1998, dated 2000).

Sequences of proteins named here, by UniProt entry; tags and fusion partners are left off. A change or cut given only in a name is not applied to a line headed by its entry.
UniProt P41145: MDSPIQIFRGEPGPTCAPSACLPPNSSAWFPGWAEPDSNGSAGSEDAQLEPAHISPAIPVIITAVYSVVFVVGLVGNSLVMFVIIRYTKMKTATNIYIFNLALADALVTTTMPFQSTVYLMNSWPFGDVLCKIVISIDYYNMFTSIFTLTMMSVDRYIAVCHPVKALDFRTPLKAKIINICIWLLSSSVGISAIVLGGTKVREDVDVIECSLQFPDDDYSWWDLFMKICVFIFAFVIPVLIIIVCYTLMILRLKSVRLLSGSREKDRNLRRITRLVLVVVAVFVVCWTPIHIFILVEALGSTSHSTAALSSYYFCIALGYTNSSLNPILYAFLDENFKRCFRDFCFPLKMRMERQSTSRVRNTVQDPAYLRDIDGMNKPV

How the values were obtained:
δ opioid receptor = δ opioid receptor (Homo sapiens, UniProt P41143); test: Receptor binding, displacement of prototype ligand DADLE
Description: (§1) For each receptor there is a prototype ligand. […] For the μ receptor the prototype ligand is DHM (dihydromorphine). For the δ receptor, the prototype ligand is DADLE (D-Ala+D-Leu-Enkephalin), and for the κ receptor, the prototype ligand is EKC (ethylketocyclazocine).

κ opioid receptor = κ opioid receptor (Homo sapiens, UniProt P41145); test: biochemical; assay type: binding; details: prototype ligand EKC
Description: as §1

Q: For C=C1CC[C@@]2(O)[C@H]3Cc4ccc(O)c5c4[C@@]2(CCN3CC2CC2)[C@H]1O5 [Nalmefene, 6-desoxy-6-methylene-naltrexone], which IC50 (δ opioid receptor) is on record?
A: Its IC50 is 6 nM.

Q: What about the IC50 (κ opioid receptor) of the same molecule?
A: The IC50 was 5 nM.
